# Literature values in paper PMC10939898.
# The chains behind the UniProt entries cited, without tags or fusion partners. Where a name states a change or a piece, a line headed by the entry shows the natural chain unless it says otherwise.
# UniProt P61077: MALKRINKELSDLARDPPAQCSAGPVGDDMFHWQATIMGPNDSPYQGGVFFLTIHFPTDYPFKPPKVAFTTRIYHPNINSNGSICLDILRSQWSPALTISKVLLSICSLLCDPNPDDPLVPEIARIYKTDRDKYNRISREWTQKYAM
# Target: UbcH5c (Homo sapiens) (UniProt P61077)
# Conditions: cited from earlier work
substance,measurement,value
ubiquitin (from UniProt P0CG48),Kd,300 µM
